From US9718861B2 (Universitaet Leipzig, priority 2011, dated 2017)

Protein sequences, listed by entry. Tags and fused reporters are not part of them.
UniProt Q92847, whole entry: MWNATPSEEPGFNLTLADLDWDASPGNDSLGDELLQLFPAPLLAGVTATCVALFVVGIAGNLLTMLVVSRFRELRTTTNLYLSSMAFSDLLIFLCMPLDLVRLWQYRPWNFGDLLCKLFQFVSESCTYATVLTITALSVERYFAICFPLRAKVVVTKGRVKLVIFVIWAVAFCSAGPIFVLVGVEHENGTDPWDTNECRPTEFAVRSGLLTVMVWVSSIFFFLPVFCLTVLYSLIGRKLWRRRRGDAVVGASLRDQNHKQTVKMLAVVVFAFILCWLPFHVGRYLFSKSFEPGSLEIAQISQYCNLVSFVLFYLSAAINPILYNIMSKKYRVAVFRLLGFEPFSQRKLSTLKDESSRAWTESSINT

Target: ghrelin receptor (Homo sapiens, UniProt Q92847)
Experiment: Inositol trisphosphate turnover assay in COS-7 cells transfected with the ghrelin receptor
Type: cell-based
Set-up: expressed in transfected cells
Conditions: for Emax ± SEM: efficacy, difference to constitutive activity (Table 2)

Row | Compound | Emax (COS-7, inverse agonistic activity, read-out: efficacy (Emax)) [%] | Emax ± SEM (inverse agonistic activity) | increase in activity compared with peptide 2 (KwFwLL-NH2) (inverse agonistic activity) [fold] | activity at the ghrelin receptor (in words) | EC50 (inverse agonistic activity, analogs KxFwLL-NH2 (Table 2), mean ± SEM of n experiments) [µM] | x-fold (Emax) (shift in efficacy compared to KwFwLL-NH2, inverse agonistic activity) [x-fold] | x-fold (EC50) (shift in potency compared to KwFwLL-NH2, inverse agonistic activity) [x-fold] | x-fold (EC50) (shift in potency compared to ghrelin, agonistic activity) [x-fold]
1 | CC(C)C[C@H](NC(=O)[C@H](CC(C)C)NC(=O)[C@@H](Cc1c[nH]c2ccccc12)NC(=O)[C@H](Cc1ccccc1)NC(=O)[C@@H](Cc1csc2ccccc12)NC(=O)[C@@H](N)CCCCN)C(N)=O [Peptide 4, K-(D-Bth)-FwLL-NH2] | > 80 | 81 ± 2 Δ % | 8.0 | – | – | – | – | –
2 | CC(C)C[C@H](NC(=O)[C@H](CC(C)C)NC(=O)[C@@H](Cc1c[nH]c2ccccc12)NC(=O)[C@H](Cc1ccccc1)NC(=O)[C@@H](Cc1ccc(C(C)(C)C)cc1)NC(=O)[C@@H](N)CCCCN)C(N)=O [Peptide 10, K-(D-tBf)-FwLL-NH2] | – | 76 ± 5 Δ % | – | severe loss of activity | 0.624 | 2.1 | 13.7 | –
3 | CC(C)C[C@H](NC(=O)[C@H](CC(C)C)NC(=O)[C@@H](Cc1csc2ccccc12)NC(=O)[C@H](Cc1ccccc1)NC(=O)[C@@H](Cc1c[nH]c2ccccc12)NC(=O)[C@@H](N)CCCCN)C(N)=O [Peptide 17, KwF-(D-Bth)-LL-NH2] | – | – | – | no activity; also recorded: total loss of activity | – | – | – | >700

“Also recorded” adds a separate entry of the source.
